Results taken from ChEMBL document CHEMBL4428076 (J Med Chem, 2016).

Test: Toxicity in C57BL/6 mouse assessed as conditioned place aversion at 30 mg/kg/day, ip measured for 30 mins post dose
Details: in vivo, 0.5 h

Question: For CN(C(=O)Cc1ccc(Cl)c(Cl)c1)C1CCCCC1N1CCCC1.Cl (stereo unspecified), which Activity is on record?
Answer: Toxic
